# Assay results taken from PubChem BioAssay AID2776 (Johns Hopkins Ion Channel Center, 2010).
# Sequences of proteins named here, by UniProt entry; tags and fusion partners are left off.
# UniProt Q9QUQ5, whole entry: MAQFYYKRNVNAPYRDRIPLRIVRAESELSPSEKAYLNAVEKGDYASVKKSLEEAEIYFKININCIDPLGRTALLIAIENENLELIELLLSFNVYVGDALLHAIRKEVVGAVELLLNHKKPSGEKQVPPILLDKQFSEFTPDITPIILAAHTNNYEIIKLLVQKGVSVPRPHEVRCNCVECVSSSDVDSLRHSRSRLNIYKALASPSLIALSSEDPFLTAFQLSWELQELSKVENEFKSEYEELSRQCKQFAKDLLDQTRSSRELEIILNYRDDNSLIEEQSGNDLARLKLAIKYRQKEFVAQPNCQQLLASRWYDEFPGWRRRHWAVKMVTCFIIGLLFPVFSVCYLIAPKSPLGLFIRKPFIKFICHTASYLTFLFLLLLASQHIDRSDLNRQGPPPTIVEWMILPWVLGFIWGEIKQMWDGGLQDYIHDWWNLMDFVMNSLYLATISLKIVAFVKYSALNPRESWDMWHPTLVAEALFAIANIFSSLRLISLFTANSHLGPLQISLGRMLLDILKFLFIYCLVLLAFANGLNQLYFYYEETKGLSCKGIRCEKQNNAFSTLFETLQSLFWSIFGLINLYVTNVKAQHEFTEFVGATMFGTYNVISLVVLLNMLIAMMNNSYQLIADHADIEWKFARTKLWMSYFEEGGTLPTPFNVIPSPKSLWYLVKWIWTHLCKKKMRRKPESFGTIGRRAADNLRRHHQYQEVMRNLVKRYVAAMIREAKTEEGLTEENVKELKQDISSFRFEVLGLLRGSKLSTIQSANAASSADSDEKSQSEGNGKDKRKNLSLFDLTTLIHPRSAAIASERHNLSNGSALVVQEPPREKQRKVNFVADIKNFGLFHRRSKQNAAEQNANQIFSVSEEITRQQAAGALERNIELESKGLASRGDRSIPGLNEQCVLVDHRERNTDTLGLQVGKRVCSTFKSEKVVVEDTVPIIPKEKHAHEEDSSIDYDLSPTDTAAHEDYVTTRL
# The list shows a part of the results, in another mix than the full data. Calls of active or inactive are those of the source.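 The calls were made as follows: active = compounds whose fluorescence signal differed from control wells by over 3 SD, either direction, in both duplicate plates; inactive = the rest.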
# Biological target: Short transient receptor potential channel 4 (Mus musculus) (UniProt Q9QUQ5)
# Experiment: mouse TRPC4 membrane potential modulation by TRPC6 hits, confirmation, selectivity assay for TRPC6 inhibitor project, cell-based, second specificity screen, HEK293 TRPC4/mu-opioid (AID 2776)
# Settings: HEK293 TRPC4/MOR, membrane potential dye fluorescence; at 10 µM; channel activated by saturating DAMGO dose
row,SMILES,outcome
1,CCOC(=O)c1ccc(NP(C)(=O)Oc2ccc(Cl)cc2)cc1 (stereo not given),inactive
2,CN(C)CCOC(=O)C(O)(c1ccccc1)C1CCCC1 (stereo not given),inactive
3,CN(C)CCOC(=O)C(O)(c1ccccc1)C1CCCCC1 (stereo not given),inactive
4,O=C(OCCCN1CCCC1)C(O)(c1ccccc1)C1CCCCC1 (stereo not given),inactive
5,CCN(CC)CCCOC(=O)C(O)(c1ccccc1)C1CCCCC1 (stereo not given),inactive
